Test results reported in patent US7625863B2, “Treatment of patients with dysfunctional cardiac sodium channels” (The MetroHealth System, priority 2006, dated 2009).

Legend:
[1] = target: T1, H558R-SCN5A+R282H-C373Y-SCN5A channels (Homo sapiens, UniProt Q14524, C373Y/R282H); assay: MTSET block of whole-cell sodium current, H558R-SCN5A+R282H-C373Y-SCN5A; format: cell-based; settings: current remaining after 1 μmol/L MTSET
T1 construct: expressed in transfected cells; host or cells: HEK293

[2] = target: T2, R282H mutant channel (Nav1.5) (Homo sapiens, UniProt Q14524, R282H); assay: Whole cell patch clamp of sodium currents in HEK293 cells co-expressing R282H mutant channel and channel fragments; format: cell-based; settings: for whole cell current, % of wild type level / restoration of whole cell sodium current / peak sodium current density compared to WT: HEK293 cells; for whole cell current, % of wild type level: R282H mutant channel co-transfected with channel fragment; for restoration of whole cell sodium current: R282H mutant co-expressed with peptide; for peak sodium current density compared to WT: FIG. 6B
T2 construct: expressed in transfected cells; host or cells: HEK293

YFP-1022/R282H = YFP-1022/R282H (Homo sapiens, UniProt Q14524, R282H); assay: FRET folding study of mutant channel construct in HEK293 cells; settings: YFP-1022/R282H co-expressed with peptide or in presence of drug

| Molecule | Peak Current Density [1] [pA/pF] | Steady-State Inactivation (V1/2) [1] [mV] | whole cell current, % of wild type level [2] | restoration of whole cell sodium current [2] | peak sodium current density compared to WT [2] | Time Constant of Inactivation compared to WT ([2]; rescued R282H channels, FIG. 7D) | Conductance (V1/2) ([2]; rescued R282H currents, HEK293) [mV] | Steady State Inactivation (V1/2) ([2]; rescued R282H currents, HEK293) [mV] | FRETc compared with non-mutated YFP-1022 (YFP-1022/R282H) | restoration of whole cell sodium current ([2]; listed as H558-20a) |
| --- | --- | --- | --- | --- | --- | --- | --- | --- | --- | --- |
| C[N+](C)(C)CCSS(C)(=O)=O.[Br-] [MTSET, [2-(trimethylammonium)ethyl]methanethiosulfonate bromide] | −259 ± 65 | −93.1 ± 3.4 | – | – | – | – | – | – | – | – |
| ESHRTSLLVP [R558-10aa, 10 amino acid channel fragment containing the H558R polymorphism] | – | – | 70 % of wild type level | Current was restored | – | – | – | – | – | – |
| NSTAGESESHRTSLLVPWPL [R558-20aa] | – | – | 75 % of wild type level | Current was restored | similar | significantly slower | −36.8 ± 1.6 | −82.8 ± 1.5 | similar | – |
| NSTARESESHHTSLLVPWPL [H558-20aa, corresponding 20 amino acid fragment of the wild type channel, reference compound] | – | – | – | but not when co-expressed with the WT peptide | significantly lower | – | – | – | – | restoration of current was not observed |
